Reference: patent publication US20050164945A1, “Endotheliase-1 ligands” (priority 2003, published 2005)
Read-outs that look alike come from different tables or passages of the source.

Protein sequences, listed by entry. Tags and fused reporters are not part of them. Lines headed by an entry give the natural chain unless they say otherwise; changes in a name come on top. Residues count along the entry.
UniProt P35030: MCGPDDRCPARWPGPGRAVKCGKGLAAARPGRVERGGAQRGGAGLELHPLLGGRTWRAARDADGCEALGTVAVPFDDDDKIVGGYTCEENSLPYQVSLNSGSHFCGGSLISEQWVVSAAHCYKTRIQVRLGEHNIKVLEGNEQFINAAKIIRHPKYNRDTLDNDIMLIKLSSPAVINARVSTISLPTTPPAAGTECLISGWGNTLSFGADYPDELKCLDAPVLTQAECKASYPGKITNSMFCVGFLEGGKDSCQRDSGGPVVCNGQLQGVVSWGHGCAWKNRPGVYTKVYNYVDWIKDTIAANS
UniProt P00742, 41-179 partner limits assumed: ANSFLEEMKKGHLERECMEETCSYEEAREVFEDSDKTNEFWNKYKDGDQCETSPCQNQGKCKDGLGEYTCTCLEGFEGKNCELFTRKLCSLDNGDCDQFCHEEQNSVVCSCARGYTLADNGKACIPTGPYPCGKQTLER
UniProt P00742, 235-488 limits assumed: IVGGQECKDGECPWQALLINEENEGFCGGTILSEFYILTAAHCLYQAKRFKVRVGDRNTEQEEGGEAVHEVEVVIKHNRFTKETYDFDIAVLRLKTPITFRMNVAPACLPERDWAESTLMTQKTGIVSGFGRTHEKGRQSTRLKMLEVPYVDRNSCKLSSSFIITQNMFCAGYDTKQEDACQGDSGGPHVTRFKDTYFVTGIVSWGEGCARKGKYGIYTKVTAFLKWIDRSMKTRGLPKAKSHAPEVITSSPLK
UniProt P00747, 97-580 partner limits assumed, species assumed: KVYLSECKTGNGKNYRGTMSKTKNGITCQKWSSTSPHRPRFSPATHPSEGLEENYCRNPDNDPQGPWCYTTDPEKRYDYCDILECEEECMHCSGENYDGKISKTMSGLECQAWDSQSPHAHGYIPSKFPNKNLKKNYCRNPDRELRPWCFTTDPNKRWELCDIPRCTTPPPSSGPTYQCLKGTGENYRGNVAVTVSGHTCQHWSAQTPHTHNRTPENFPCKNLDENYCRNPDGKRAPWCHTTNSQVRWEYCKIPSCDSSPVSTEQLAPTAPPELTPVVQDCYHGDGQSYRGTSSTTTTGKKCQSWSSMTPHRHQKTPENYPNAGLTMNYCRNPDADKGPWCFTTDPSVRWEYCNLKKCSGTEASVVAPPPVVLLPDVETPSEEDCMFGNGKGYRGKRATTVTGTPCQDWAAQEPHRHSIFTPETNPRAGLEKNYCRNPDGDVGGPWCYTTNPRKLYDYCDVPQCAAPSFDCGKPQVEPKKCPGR
UniProt P00747, 581-810 limits assumed, species assumed: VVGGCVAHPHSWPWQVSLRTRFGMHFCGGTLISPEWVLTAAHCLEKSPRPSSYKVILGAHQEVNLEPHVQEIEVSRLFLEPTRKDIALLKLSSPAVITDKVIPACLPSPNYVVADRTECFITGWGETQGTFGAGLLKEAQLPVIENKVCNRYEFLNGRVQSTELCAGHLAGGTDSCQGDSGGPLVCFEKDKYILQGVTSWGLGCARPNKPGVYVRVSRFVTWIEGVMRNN
UniProt Q9Y5Y6, whole entry, species assumed: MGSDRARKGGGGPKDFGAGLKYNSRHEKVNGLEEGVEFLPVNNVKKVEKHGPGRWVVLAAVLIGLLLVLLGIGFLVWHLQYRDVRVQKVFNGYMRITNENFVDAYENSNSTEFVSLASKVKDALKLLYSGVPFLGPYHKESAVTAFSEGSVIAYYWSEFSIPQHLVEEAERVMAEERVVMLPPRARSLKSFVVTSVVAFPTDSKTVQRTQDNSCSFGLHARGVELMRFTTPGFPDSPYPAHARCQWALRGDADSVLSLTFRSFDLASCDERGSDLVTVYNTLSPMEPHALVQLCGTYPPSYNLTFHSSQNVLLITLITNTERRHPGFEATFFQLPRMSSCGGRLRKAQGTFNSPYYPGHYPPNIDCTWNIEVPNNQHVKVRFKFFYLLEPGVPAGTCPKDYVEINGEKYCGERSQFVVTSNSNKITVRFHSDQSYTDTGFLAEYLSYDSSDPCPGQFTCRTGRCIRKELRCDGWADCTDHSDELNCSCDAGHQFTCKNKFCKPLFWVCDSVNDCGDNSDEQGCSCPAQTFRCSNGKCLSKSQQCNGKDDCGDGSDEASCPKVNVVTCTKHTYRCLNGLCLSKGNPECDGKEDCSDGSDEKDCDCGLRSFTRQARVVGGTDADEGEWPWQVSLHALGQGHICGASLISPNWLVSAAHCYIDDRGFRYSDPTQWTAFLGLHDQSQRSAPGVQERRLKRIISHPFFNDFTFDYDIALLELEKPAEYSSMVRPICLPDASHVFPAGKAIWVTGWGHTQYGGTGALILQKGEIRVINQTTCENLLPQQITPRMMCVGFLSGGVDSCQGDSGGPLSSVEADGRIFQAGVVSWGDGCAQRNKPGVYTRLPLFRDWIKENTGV

Columns and labels:
ET1 [1] = molecular target: T1, ET1 (Homo sapiens, UniProt Q9UL52); test: Inhibition of ET1 by synthetic peptides (IC50, apparent Ki); type: biochemical; parameters: made in house; host or cells: Pichia; conditions: for IC50: crude IC50s of synthetic peptides
T1 sequence (Q9UL52 2-423 limits assumed): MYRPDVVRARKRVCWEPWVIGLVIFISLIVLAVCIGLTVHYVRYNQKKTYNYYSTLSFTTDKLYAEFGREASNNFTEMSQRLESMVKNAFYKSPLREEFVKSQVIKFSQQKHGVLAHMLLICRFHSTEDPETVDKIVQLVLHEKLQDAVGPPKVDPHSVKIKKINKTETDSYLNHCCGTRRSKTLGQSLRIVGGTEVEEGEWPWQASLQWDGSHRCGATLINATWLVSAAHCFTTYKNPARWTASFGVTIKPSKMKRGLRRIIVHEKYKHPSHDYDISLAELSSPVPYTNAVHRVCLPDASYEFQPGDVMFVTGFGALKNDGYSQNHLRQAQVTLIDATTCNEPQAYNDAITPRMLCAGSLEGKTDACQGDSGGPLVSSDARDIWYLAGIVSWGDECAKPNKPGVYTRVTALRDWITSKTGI

TnIV = TnIV (Homo sapiens, UniProt P35030); conditions: read-out: TnIV estimated IC50, 30 minute preincubation with 100 nM Kunitz domain
Protocol: (§1) Cloning into this vector placed a His-tag at the C-terminus of the protein that was used to facilitate purification.
(§2) For protein production, E. coli containing the expression vector were grown in media containing ampicillin and 2% glucose to an OD600 of 0.5. At this time the cells were spun down and the media removed. The cell pellet was then resuspended in fresh media containing ampicillin and 1 mM IPTG to induce expression of the protein. The cells were allowed to grow with shaking overnight at 30° C. before harvesting by centrifugation. Periplasmic extracts were then prepared and the MBP-Kunitz fusion purified using immobilized metal ion chromatography.

fXa = fXa (Homo sapiens, UniProt P00742); conditions: read-out: fXa estimated IC50, 30 minute preincubation with 100 nM Kunitz domain
Protocol: as §1, §2

Plasmin = Plasmin (Homo sapiens, UniProt P00747); conditions: read-out: Plasmin estimated IC50, 30 minute preincubation with 100 nM Kunitz domain
Protocol: as §1, §2

ET1 [2] = molecular target: T1, ET1
Protocol: as §1, §2

MTSP-1 = MTSP-1 (Homo sapiens, UniProt Q9Y5Y6); conditions: read-out: MTSP-1 estimated IC50, 30 minute preincubation with 100 nM Kunitz domain
Protocol: as §1, §2

[3] = Table 2, motif 1 peptides, read-out: Ki
[4] = apparent Ki, uncorrected for substrate binding, second generation peptides, read-out: Ki^App against ET1
[5] = Table 3, motif 2 peptides, read-out: Ki
[6] = read-out: T^0 IC50, ET1, 0 minute preincubation
[7] = read-out: T^30 IC50, ET1, 30 minute preincubation

## AGAHTCESRDIPCTVKGT [SEQ ID NO:208]
ET1 [1]; [3]
  Ki: 100 to 1000 nM

## AGFQKCKGLYPDCYVPGT [DX-1054]
ET1 [1]
  IC50: 10000 nM

## AGGFKCISEEEDCKLMGT [DX-1073]
ET1 [1]
  IC50: > 10000 nM

## AGGWRYPCKGFYPDCGYPGT [DX-1638]
ET1 [1]; [4]
  Ki: 126 nM

## AGHGECMVASHMCIKHGTY [DX-1134]
ET1 [1]
  IC50: > 10000 nM

## AGKHICRGFYPDCVWQTFGT [DX-1649]
ET1 [1]; [4]
  Ki: 22.1 nM

## AGKHICRGFYPDCVWQTWGT [DX-1645]
ET1 [1]; [4]
  Ki: 15.6 nM

## AGKHICRGYYPDCEWQIFGT [DX-1650]
ET1 [1]; [4]
  Ki: 33.6 nM

## AGKHICRGYYPDCIWQFAGT [DX-1648]
ET1 [1]; [4]
  Ki: 19.8 nM

## AGKHICRGYYPDCVWQTFGT [DX-1647]
ET1 [1]; [4]
  Ki: 12.7 nM

## AGKHICRGYYPDCVWQTWGT [DX-1646]
ET1 [1]; [4]
  Ki: 8.6 nM

## AGKMRCISRDIPCSHYQIGT [DX-1637]
ET1 [1]; [4]
  Ki: 8.5 nM

## AGKMRCISRDIPCTTRVAGTY [DX-1636]
ET1 [1]; [4]
  Ki: 11.3 nM

## AGKMRCISRDIPCTVFQEGT [DX-1635]
ET1 [1]; [4]
  Ki: 8.5 nM

## AGKMRCISRDIPCTVKSGGTY [DX-1632]
ET1 [1]; [4]
  Ki: 15.8 nM

## AGKMRCLSRDIPCSIHQKGTY [DX-1633]
ET1 [1]; [4]
  Ki: 26.4 nM

## AGKMRCLSRDIPCVNFRLGT [DX-1634]
ET1 [1]; [4]
  Ki: 19.3 nM

## AGLRKCGFWGFPCKGMGT [DX-1040]
ET1 [1]
  IC50: > 10000 nM

## AGMARVKCISRDIPCVTHGTY [DX-1631]
ET1 [1]; [4]
  Ki: 13.1 nM

## AGNTGWRCKGYYPDCGYPGT [DX-1639]
ET1 [1]; [4]
  Ki: 28 nM

## AGNWYCKGLYPDCMHKGT [DX-1132]
ET1 [1]
  IC50: 110 nM

## AGNYMCKGYWPDCKMTGT [DX-1133]
ET1 [1]; [5]
  Ki: 256 nM
ET1 [1]
  IC50: 350 nM

## AGPDPCRMQGPWCTPMGT [DX-1074]
ET1 [1]
  IC50: > 10000 nM

## AGQLGWKCKGYYPDCGYPGT [DX-1643]
ET1 [1]; [4]
  Ki: 25.6 nM

## AGQMRRKCISRDIPCVTHGTY [DX-1628]
ET1 [1]; [4]
  Ki: 10.2 nM

## AGQVRRYCISRDIPCVTHGT [DX-1626]
ET1 [1]; [4]
  Ki: 16.6 nM

## AGRAGWRCKGYYPDCGYPGT [DX-1642]
ET1 [1]; [4]
  Ki: 11.6 nM

## AGRASWRCKGYYPDCGYPGT [DX-1640]
ET1 [1]; [4]
  Ki: 29 nM

## AGRETWVCKGYYPDCGYPGT [DX-1641]
ET1 [1]; [4]
  Ki: 34.6 nM

## AGRSRVRCISRDIPCVTHGTY [DX-1629]
ET1 [1]; [4]
  Ki: 145 nM

## AGSGRRFCISRDIPCVTHGT [DX-1630]
ET1 [1]; [4]
  Ki: 128 nM

## AGSSGWRCKGYYPDCGYPGT [DX-1644]
ET1 [1]; [4]
  Ki: 8.6 nM

## AGTEFCWLHKGICKTWGT [DX-1075]
ET1 [1]
  IC50: > 10000 nM

## AGTMSCDGSMVPCYTPGT [DX-1076]
ET1 [1]
  IC50: > 10000 nM

## AGVQHCESRDLPCLIKGT [DX-1051]
ET1 [1]; [3]
  Ki: 100 to 1000 nM
ET1 [1]
  IC50: 770 nM

## AGWPTCRGFWPDCGMMGT [DX-1135]
ET1 [1]; [5]
  Ki: 100 to 1000 nM
ET1 [1]
  IC50: 47 nM

## AQGDNIGVWLWAPYSKGFAWQLGG [DX-1043]
ET1 [1]
  IC50: > 10000 nM

## AQGMQDEGGAIRHKGAWYWMMAGG [DX-1046]
ET1 [1]
  IC50: > 10000 nM

## AQNREHSSKFGTVRYSTLGPPPGG [DX-1045]
ET1 [1]
  IC50: > 10000 nM

## AQPHWVPNQPVRDRWQSFPKWLGG [DX-1077]
ET1 [1]
  IC50: > 10000 nM

## GDDNECEPDADLSEYECVHRDP [DX-1078]
ET1 [1]
  IC50: > 10000 nM

## GDNLFCGHSKYAQDHRCRLYDP [DX-1079]
ET1 [1]
  IC50: > 10000 nM

## GDSPHCGSHVTVNEKSCMFYDP [DX-1080]
ET1 [1]
  IC50: > 10000 nM

## GDYLQCRWNAWENRTLCTWRDP [DX-1042]
ET1 [1]
  IC50: > 10000 nM

## GSNGHCDNHCQMNAP [DX-1044]
ET1 [1]
  IC50: > 10000 nM

## GSNHICPSMGCKFSAP [DX-1081]
ET1 [1]
  IC50: > 10000 nM

## GSQHICHPGGCEKPAP [DX-1038]
ET1 [1]
  IC50: > 10000 nM

## GSSFFCVGPECWTSAP [DX-1082]
ET1 [1]
  IC50: > 10000 nM

## GSSMFCDAYYCTDHAP [DX-1083]
ET1 [1]
  IC50: > 10000 nM

## GSVGLCYQNFCKKIAP [DX-1100]
ET1 [1]
  IC50: > 10000 nM

## GSWDSCNELRCIWDAP [DX-1084]
ET1 [1]
  IC50: > 10000 nM

## MAAEMHSFCAFKADKGECRASVQRFFFNIFTRQCEEFNYGGCGGNQNRFESLEECKKMCTRDSASSASGDFD [MBP-D12]
TnIV
  IC50: ≥ 1000 nM
fXa
  IC50: ≥ 1000 nM
Plasmin
  IC50: ~500 nM
ET1 [2]; [6]
  IC50: 54.3 nM
ET1 [2]; [7]
  IC50: 1.2 nM

## MAAEMHSFCAFKADKGFCRAMDIRFFFNIFTRQCEEFIYGGCGGNQNRFESLEECKKMCTRDSASSASGDFD [MBP-1B2]
TnIV
  IC50: ≥ 1000 nM
Plasmin
  IC50: ~500 nM
ET1 [2]; [6]
  IC50: 21 nM
ET1 [2]; [7]
  IC50: 1.3 nM

## MAAEMHSFCAFKADKGTCRGDFPRFFFNIFTRQCEEFHYGGCGGNQNRFESLEECKKMCTRDSASSASGDFD [MBP-1E9]
TnIV
  IC50: ≥ 1000 nM
Plasmin
  IC50: ≥ 1000 nM
ET1 [2]; [6]
  IC50: 66 nM
ET1 [2]; [7]
  IC50: 2.1 nM

## MAAEMHSFCAFKADPGPCRAIMTRFFFNIFTRQCEEFRYGGCLGNQNRFESLEECKKMCTRDSASSASGDFD [MBP-1G11]
TnIV
  IC50: ≥ 1000 nM
fXa
  IC50: ≥ 1000 nM
Plasmin
  IC50: ~50 nM
ET1 [2]; [6]
  IC50: 120 nM
ET1 [2]; [7]
  IC50: 2.7 nM

## MAAEMHSFCAFKADPGPCRAMFNRFFFNIFTRQCEEFNYGGCSGNQNRFESLEECKKMCTRDSASSASGDFD [MBP-1E6]
MTSP-1
  IC50: ~500 nM
TnIV
  IC50: ~100 nM
Plasmin
  IC50: ~30 nM
ET1 [2]; [7]
  IC50: 4.9 nM

## MAAEMHSFCAFKADPGQCRAYYRRFFFNIFTRQCEEFVYGGCMGNQNRFESLEECKKMCTRDSASSASGDFD [MBP-1G2]
TnIV
  IC50: ~600 nM
fXa
  IC50: ~100 nM
Plasmin
  IC50: ~40 nM
ET1 [2]; [6]
  IC50: 310 nM
ET1 [2]; [7]
  IC50: 8.2 nM

## MAAEMHSFCAFKADQGPCRAAISRFFFNIFTRQCEEFVYGGCEGNQNRFESLEECKKMCTRDSASSASGDFD [MBP-1D9]
TnIV
  IC50: ≥ 1000 nM
Plasmin
  IC50: ~60 nM
ET1 [2]; [6]
  IC50: 164 nM
ET1 [2]; [7]
  IC50: 7.1 nM

## MAAEMHSFCAFKADQGPCRASVHRFFFNIFTRQCEEFFYGGCLGNQNRFESLEECKKMCTRDSASSASGDFD [MBP-1F8]
Plasmin
  IC50: ~60 nM
ET1 [2]; [6]
  IC50: > 400 nM
ET1 [2]; [7]
  IC50: 21.4 nM

## MAAEMHSFCAFKADRGPCRADFHRFFFNIFTRQCEEFHYGGCGGNQNRFESLEECKKMCTRDSASSASGDFD [MBP-1A10]
MTSP-1
  IC50: ≥ 1000 nM
TnIV
  IC50: ~80 nM
Plasmin
  IC50: ~100 nM
ET1 [2]; [6]
  IC50: 88 nM
ET1 [2]; [7]
  IC50: 3.1 nM

## MAAEMHSFCAFKADRGPCRAYFDRFFFNIFTRQGEEFIYGGCMGNQNRFESLEECKKMCTRDSASSASGDFD [MBP-1G8]
TnIV
  IC50: ~10 nM
fXa
  IC50: ≥ 1000 nM
Plasmin
  IC50: ~80 nM
ET1 [2]; [6]
  IC50: 109 nM
ET1 [2]; [7]
  IC50: 2.1 nM

## MAAEMHSFCAFKADTGPCRADIKRFFFNIFTRQCEEFRYGGCMGNQNRFESLEECKKMCTRDSASSASGDFD [MBP-1G9]
MTSP-1
  IC50: ≥ 1000 nM
Plasmin
  IC50: ~100 nM
ET1 [2]; [6]
  IC50: 646 nM
ET1 [2]; [7]
  IC50: 20.7 nM

## MAAEMHSFCAFKADTGTCRAAMVRFFFNIFTRQCEEFTYGGCEGNQNRFESLEECKKMCTRDSASSASGDFD [MBP-1H8]
Plasmin
  IC50: ~60 nM
ET1 [2]; [6]
  IC50: > 400 nM
ET1 [2]; [7]
  IC50: 15 nM
